Laboratory results: US20230295087A1, “AGONISTS OF ROR GAMMAt” (BRISTOL-MYERS SQUIBB COMPANY, priority 2019, published 2023)

The chains behind the UniProt entries cited, without tags or fusion partners. Residues count along the entry.
UniProt P51449, 267-516 limits assumed: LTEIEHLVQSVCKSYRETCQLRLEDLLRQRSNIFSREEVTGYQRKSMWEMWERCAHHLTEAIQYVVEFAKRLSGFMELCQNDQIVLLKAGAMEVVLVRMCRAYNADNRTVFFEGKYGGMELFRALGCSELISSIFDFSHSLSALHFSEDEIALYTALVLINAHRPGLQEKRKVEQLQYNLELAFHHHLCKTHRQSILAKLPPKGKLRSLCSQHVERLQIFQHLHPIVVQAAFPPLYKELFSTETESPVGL

Target: human RORgT (Homo sapiens, UniProt P51449)
Assay: RORgT Gal4 Luciferase Reporter Gene Assay
Conditions: read-out: RORgT-GAL4 EC50; engineered Jurkat cells overexpressing RORgT (LBD or full length) fused with Gal4 Luc reporter; 18 hours at 37° C.; luminescence

- EC50: 161 nM
SMILES: CC(=O)N[C@H]1CC[C@H](CN2CC[C@@]3(S(=O)(=O)c4ccc(F)cc4)c4ccc(OCc5c(F)cccc5C(F)(F)F)cc4CC[C@@H]23)CC1
